The values that follow come from publication PMC8179271, “Identification of β-strand mediated protein–protein interaction inhibitors using ligand-directed fragment ligation” (Chemical Science, 2021).

Chains of the proteins cited; added tags and fusions are not shown. Residues count along the entry.
UniProt Q9Y566, 656-762 limits assumed: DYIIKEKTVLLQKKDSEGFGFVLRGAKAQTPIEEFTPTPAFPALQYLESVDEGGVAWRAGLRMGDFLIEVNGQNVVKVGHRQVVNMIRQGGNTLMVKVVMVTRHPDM

The target in the test is SHANK1 PDZ (Homo sapiens, UniProt Q9Y566). The test can be described thus: Fluorescence anisotropy competition assay (FITC-Ahx-TRL-COOH tracer). The test is classed as binding. To be noted: read-out: IC50 (Fig. S7-S9, S11, S12, hybrids selected for validation from single point screens); x-A001 incubated with 5 equiv aldehyde in presence of protein for 24 h, then 10 nM FITC-Ahx-TRL-COOH; 50 mM NH4Ac pH 6.5, 10 mM aniline; SHANK1 PDZ 1 M.

Broadly, the IC50 is the midpoint of a concentration-inhibition curve. Turning to `CC(C)C[C@H](NC(=O)[C@H](CCCNC(=N)N)NC(=O)[C@@H](NC(=O)CCCC(=O)N/N=C/c1ccc(-c2cc(C(=O)O)ccc2Cl)o1)[C@@H](C)O)C(=O)O`, the IC50 was 4.2 µM.

Consider `CC(C)C[C@H](NC(=O)[C@H](CCCNC(=N)N)NC(=O)[C@@H](NC(=O)CCC(=O)N/N=C/c1ccc(-c2cc(C(=O)O)ccc2Cl)o1)[C@@H](C)O)C(=O)O`, for which the IC50 amounted to 13.9 µM.

For `CC(C)C[C@H](NC(=O)[C@H](CCCNC(=N)N)NC(=O)[C@@H](NC(=O)CCCC(=O)N/N=C/c1ccc(C(=O)O)o1)[C@@H](C)O)C(=O)O`, the half-inhibitory concentration (IC50) is 4.8 µM.

With `Cc1cc2c(s1)c(/C=N/NC(=O)CCC(=O)N[C@H](C(=O)N[C@@H](CCCNC(=N)N)C(=O)N[C@@H](CC(C)C)C(=O)O)[C@@H](C)O)c(C(=O)O)n2C`, the concentration for half-maximal inhibition (IC50) was determined as 25.3 µM.

Turning to `CC(C)C[C@H](NC(=O)[C@H](CCCNC(=N)N)NC(=O)[C@@H](NC(=O)CCC(=O)N/N=C/c1ccccc1-c1ccccc1C(=O)O)[C@@H](C)O)C(=O)O`, the IC50 came to 15.7 µM.

Take `Cc1cc2c(s1)c(/C=N/NC(=O)CCCC(=O)N[C@H](C(=O)N[C@@H](CCCNC(=N)N)C(=O)N[C@@H](CC(C)C)C(=O)O)[C@@H](C)O)c(C(=O)O)n2C`: the IC50 amounted to 5.1 µM.

As to `CC(C)C[C@H](NC(=O)[C@H](CCCNC(=N)N)NC(=O)[C@@H](NC(=O)CCC(=O)N/N=C/c1ccc(C(=O)O)o1)[C@@H](C)O)C(=O)O`, the IC50 turned out to be 12.5 µM.
